The values that follow come from patent US20260116920A1, “HUMAN TRANSFERRIN RECEPTOR BINDING PEPTIDE” (PEPTIDREAM INC., priority 2021, published 2026).

Amino acid sequences for entries named in this document (tags omitted). Residues count along the entry.
UniProt P02786, 89-760 limits assumed: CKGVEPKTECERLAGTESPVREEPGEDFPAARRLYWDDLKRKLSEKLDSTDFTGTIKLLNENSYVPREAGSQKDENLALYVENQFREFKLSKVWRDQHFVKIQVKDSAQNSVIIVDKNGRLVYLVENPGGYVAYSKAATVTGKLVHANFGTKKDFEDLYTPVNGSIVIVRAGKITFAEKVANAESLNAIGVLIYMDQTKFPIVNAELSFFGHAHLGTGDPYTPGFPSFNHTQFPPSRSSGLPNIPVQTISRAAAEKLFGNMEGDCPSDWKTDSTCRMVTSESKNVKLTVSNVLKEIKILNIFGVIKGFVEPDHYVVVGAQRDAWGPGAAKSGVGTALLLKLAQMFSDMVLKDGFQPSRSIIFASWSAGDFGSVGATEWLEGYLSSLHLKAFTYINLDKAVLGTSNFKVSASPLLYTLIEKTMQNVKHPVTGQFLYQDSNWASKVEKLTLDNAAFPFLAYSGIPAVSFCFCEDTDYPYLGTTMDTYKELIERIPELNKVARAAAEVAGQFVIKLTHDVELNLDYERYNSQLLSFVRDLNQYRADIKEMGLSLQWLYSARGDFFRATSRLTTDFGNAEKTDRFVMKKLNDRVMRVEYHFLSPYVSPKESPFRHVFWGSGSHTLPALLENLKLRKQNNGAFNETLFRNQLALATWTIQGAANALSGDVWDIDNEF

This assay deals with T1, human transferrin receptor (hTfR) (Homo sapiens, UniProt P02786).
T1 construct: made in house
The experiment in a line: Evaluation of molecular interaction between transferrin receptor (hTfR) and peptide using surface plasmon resonance (SPR). It is filed as binding. In outline:
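KD values are derived by least-squares fitting of single-cycle kinetic sensorgrams. Peptide series (5–100 nM) flows over recombinant hTfR dimer immobilized on a Ni-NTA chip by EDC/NHS coupling, in pH 8.0 HEPES buffer containing 0.1% BSA and 1.0% DMSO.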
A general note: In SPR one partner is held on a chip, and binding of the other changes the refractive index at the surface.

[1] abbreviates: KD class of the peptide with linker for hTfR by surface plasmon resonance, read-out: SPR.
Where [2] appears, read: SPR, immobilized recombinant hTfR, single-cycle kinetics, substitution variants of 894_3151, read-out: KD.
[3] abbreviates: KD class of peptide with linker binding to hTfR, by SPR (TABLE 5), read-out: SPR.

Where two headings read alike, the source gives them in different places.

`CC[C@H](C)[C@@H]1NC(=O)[C@H](Cc2ccc(OCC(=O)O)cc2)NC(=O)[C@H](Cc2ccc(O)cc2)NC(=O)[C@H](CC(N)=O)NC(=O)[C@H](Cc2cn(CC(=O)O)c3ccccc23)NC(=O)[C@H](C(C)C)NC(=O)[C@H](Cc2cccc(Cl)c2)N(C)C(=O)[C@H](C(C)C)NC(=O)[C@H](C)NC(=O)CSC[C@@H](C(=O)NCC(=O)N[C@H](CCC(=O)O)C(=O)N[C@H](CCC(=O)O)C(=O)N[C@H](CCC(=O)O)C(=O)N[C@H](CO)C(=O)N[C@H](CO)C(=O)N[C@@H](CCCCN)C(N)=O)NC(=O)[C@H](Cc2ccc(O)cc2)N(C)C(=O)[C@H](Cc2ccncc2)NC(=O)[C@H](CCCCN2CCOCC2)NC(=O)[C@H](CCC(=O)NCCOCCOCCOCCOCCOCCOCCOCCOC)NC(=O)[C@H]([C@@H](C)CC)NC1=O` [compound 306]: the Kd under setting [1] lay in the range of 0.001 to 0.1 µM. As for `CC[C@H](C)[C@@H]1NC(=O)[C@H](Cc2ccc(O)cc2)NC(=O)[C@H](Cc2ccc(O)cc2)NC(=O)[C@H](CC(N)=O)NC(=O)[C@H](Cc2c[nH]c3ccccc23)NC(=O)[C@H](C(C)C)NC(=O)[C@H](Cc2ccccc2)N(C)C(=O)[C@H](C(C)C)NC(=O)CNC(=O)CSC[C@@H](C(=O)NCCOCCOCCOCCOCCOCCOCCOCCOCCOCCOCCOCCOCCC(N)=O)NC(=O)[C@H](Cc2ccc(O)cc2)N(C)C(=O)[C@H](Cc2ccc(O)cc2)NC(=O)[C@H](CCCNC(=N)N)NC(=O)[C@H](CCCNC(=N)N)NC(=O)[C@H]([C@@H](C)CC)NC1=O` [compound 256], the Kd under setting [2] came to 0.0186 µM. As for `CC[C@H](C)[C@@H]1NC(=O)[C@H](Cc2ccc(OCC(=O)O)cc2)NC(=O)[C@H](Cc2ccc(O)cc2)NC(=O)[C@H](CC(N)=O)NC(=O)[C@H](Cc2cn(CC(=O)O)c3ccccc23)NC(=O)[C@H](C(C)C)NC(=O)[C@H](Cc2cccc(Cl)c2)N(C)C(=O)[C@H](C(C)C)NC(=O)[C@H](C)NC(=O)CSC[C@@H](C(=O)NCC(=O)N[C@H](CCC(=O)O)C(=O)N[C@H](CCC(=O)O)C(=O)N[C@H](CO)C(=O)N[C@H](CCC(=O)O)C(=O)N[C@H](CO)C(=O)N[C@@H](CCCCNC(C)=O)C(N)=O)NC(=O)[C@H](Cc2ccc(O)cc2)N(C)C(=O)[C@H](Cc2ccccc2)NC(=O)[C@H](CCCNC(=N)N)NC(=O)[C@H](CCCNC(=N)N)NC(=O)[C@H]([C@@H](C)CC)NC1=O` [compound 330], the Kd under setting [3] lay within 0.001 to 0.1 µM. Still for that read-out and setting: in the case of `CC[C@H](C)[C@@H]1NC(=O)[C@H](Cc2ccc(OCC(=O)O)cc2)NC(=O)[C@H](Cc2ccc(O)cc2)NC(=O)[C@H](CC(N)=O)NC(=O)[C@H](Cc2cn(CC(=O)O)c3ccccc23)NC(=O)[C@H](C(C)C)NC(=O)[C@H](Cc2cccc(Cl)c2)N(C)C(=O)[C@H](C(C)C)NC(=O)[C@H](C)NC(=O)CSC[C@@H](C(=O)NCC(=O)N[C@H](CCC(=O)O)C(=O)N[C@H](CO)C(=O)N[C@H](CO)C(=O)N[C@H](CCC(=O)O)C(=O)N[C@H](CCC(=O)O)C(=O)N[C@@H](CCCCNC(C)=O)C(N)=O)NC(=O)[C@H](Cc2ccc(O)cc2)N(C)C(=O)[C@H](Cc2ccccc2)NC(=O)[C@H](CCCNC(=N)N)NC(=O)[C@H](CCCNC(=N)N)NC(=O)[C@H]([C@@H](C)CC)NC1=O` [compound 329] it was 0.001 to 0.1 µM.

For the compound `CC[C@H](C)[C@@H]1NC(=O)[C@H](Cc2ccc(OCC(=O)O)cc2)NC(=O)[C@H](Cc2ccc(N)nc2)NC(=O)[C@H](CC(N)=O)NC(=O)[C@H](Cc2c[nH]c3ccccc23)NC(=O)[C@H](C(C)C)NC(=O)[C@H](Cc2cccc(Cl)c2)N(C)C(=O)[C@H](C(C)C)NC(=O)[C@H](C)NC(=O)CSC[C@@H](C(=O)NCC(=O)NCC(=O)NCC(=O)NCC(=O)N[C@@H](CO)C(=O)N[C@@H](CO)C(=O)N[C@@H](CCCCN=[N+]=[N-])C(N)=O)NC(=O)[C@H](Cc2ccc(O)cc2)N(C)C(=O)[C@H](Cc2cccc(C(=O)O)c2)NC(=O)[C@H](CCCNC(=N)N)NC(=O)[C@H](CCC(=O)NCCOCCOCCOCCOCCOCCOCCOCCOC)NC(=O)[C@H]([C@@H](C)CC)NC1=O` [compound 269], the Kd under setting [1] was in the range of 0.001 to 0.1 µM. As for `CC[C@H](C)[C@@H]1NC(=O)[C@H](Cc2ccc(O)cc2)NC(=O)[C@H](Cc2ccc(O)cc2)NC(=O)[C@H](CC(N)=O)NC(=O)[C@H](Cc2c[nH]c3ccccc23)N(C)C(=O)[C@H](C(C)C)NC(=O)[C@H](Cc2ccccc2)N(C)C(=O)[C@H](C(C)C)NC(=O)[C@H](C)NC(=O)CSC[C@@H](C(=O)NCC(=O)NCC(=O)NCC(=O)N[C@@H](Cc2ccccc2)C(=O)NCC(=O)N[C@@H](CCCCN=[N+]=[N-])C(N)=O)NC(=O)[C@H](Cc2ccc(O)cc2)N(C)C(=O)[C@H](Cc2ccc(O)cc2)NC(=O)[C@H](CCCNC(=N)N)NC(=O)[C@H](CCCCN)NC(=O)[C@H]([C@@H](C)CC)NC1=O` [compound 301], under setting [1], the Kd is 0.001 to 0.1 µM. For the compound `CC[C@H](C)[C@@H]1NC(=O)[C@H](Cc2ccc(OCC(=O)O)cc2)NC(=O)[C@H](Cc2ccc(N)nc2)NC(=O)[C@H](CC(N)=O)NC(=O)[C@H](Cc2c[nH]c3ccccc23)NC(=O)[C@H](C(C)C)NC(=O)[C@H](Cc2cccc(Cl)c2)N(C)C(=O)[C@H](C(C)C)NC(=O)[C@H](C)NC(=O)CSC[C@@H](C(=O)NCC(=O)N[C@H](CO)C(=O)N[C@H](CO)C(=O)N[C@H](CO)C(=O)N[C@H](CO)C(=O)N[C@H](CO)C(=O)N[C@H](CCCCN)C(N)=O)NC(=O)[C@H](Cc2ccc(O)cc2)N(C)C(=O)[C@H](Cc2cccc(C(=O)O)c2)NC(=O)[C@H](CCCNC(=N)N)NC(=O)[C@H](CCC(=O)NCCOCCOCCOCCOCCOCCOCCOCCOC)NC(=O)[C@H]([C@@H](C)CC)NC1=O` [compound 341], the Kd under setting [3] was 0.001 to 0.1 µM. Still for that read-out and setting: under `CC[C@H](C)[C@@H]1NC(=O)[C@H](Cc2ccc(OCC(=O)O)cc2)NC(=O)[C@H](Cc2ccc(O)cc2)NC(=O)[C@H](CC(N)=O)NC(=O)[C@H](Cc2cn(CC(=O)O)c3ccccc23)NC(=O)[C@H](C(C)C)NC(=O)[C@H](Cc2cccc(Cl)c2)N(C)C(=O)[C@H](C(C)C)NC(=O)[C@H](C)NC(=O)CSC[C@@H](C(=O)NCC(=O)N[C@H](CO)C(=O)N[C@H](CCC(=O)O)C(=O)N[C@H](CO)C(=O)N[C@H](CCC(=O)O)C(=O)N[C@H](CCC(=O)O)C(=O)N[C@@H](CCCCNC(C)=O)C(N)=O)NC(=O)[C@H](Cc2ccc(O)cc2)N(C)C(=O)[C@H](Cc2ccccc2)NC(=O)[C@H](CCCNC(=N)N)NC(=O)[C@H](CCCNC(=N)N)NC(=O)[C@H]([C@@H](C)CC)NC1=O` [compound 333] stands 0.001 to 0.1 µM. For the setting “SPR, KD class of the peptide with linker for hTfR by surface plasmon resonance”, `CC[C@H](C)[C@@H]1NC(=O)[C@H](Cc2ccc(OCC(=O)O)cc2)NC(=O)[C@H](Cc2ccc(O)cc2)NC(=O)[C@H](CC(N)=O)NC(=O)[C@H](Cc2cn(CC(=O)O)c3ccccc23)NC(=O)[C@H](C(C)C)NC(=O)[C@H](Cc2cccc(Cl)c2)N(C)C(=O)[C@H](C(C)C)NC(=O)[C@H](C)NC(=O)CSC[C@@H](C(=O)NCC(=O)NCC(=O)NCC(=O)NCC(=O)N[C@@H](CO)C(=O)N[C@@H](CO)C(=O)N[C@@H](CCCCNC(C)=O)C(N)=O)NC(=O)[C@H](Cc2ccc(O)cc2)N(C)C(=O)[C@H](Cc2ccccc2)NC(=O)[C@H](CCCNC(=N)N)NC(=O)[C@H](CCCNC(=N)N)NC(=O)[C@H]([C@@H](C)CC)NC1=O` [compound 294] yielded a Kd of 0.001 to 0.1 µM. With `CC[C@H](C)[C@@H]1NC(=O)[C@H](Cc2ccc(O)cc2)NC(=O)[C@H](Cc2ccc(O)cc2)NC(=O)[C@H](CC(N)=O)NC(=O)[C@H](Cc2c[nH]c3ccccc23)N(C)C(=O)[C@H](C(C)C)NC(=O)[C@H](Cc2ccccc2)N(C)C(=O)[C@H](C(C)C)NC(=O)[C@H](C)NC(=O)CSC[C@@H](C(=O)NCC(=O)NCC(=O)NCC(=O)NCC(=O)N[C@@H](CO)C(=O)N[C@@H](CO)C(=O)N[C@@H](CS)C(N)=O)NC(=O)[C@H](Cc2ccc(O)cc2)N(C)C(=O)[C@H](Cc2ccc(O)cc2)NC(=O)[C@H](CCCNC(=N)N)NC(=O)[C@H](CCCCN)NC(=O)[C@H]([C@@H](C)CC)NC1=O` [compound 352], the Kd under setting [3] is 0.001 to 0.1 µM.

For `CC[C@H](C)[C@@H]1NC(=O)[C@H](Cc2ccc(O)cc2)NC(=O)[C@H](Cc2ccc(O)cc2)NC(=O)[C@H](CC(N)=O)NC(=O)[C@H](Cc2c[nH]c3ccccc23)NC(=O)[C@H](CO)NC(=O)[C@H](Cc2ccccc2)N(C)C(=O)[C@H](C(C)C)NC(=O)[C@H](C)NC(=O)CSC[C@@H](C(=O)NCCOCCOCCOCCOCCOCCOCCOCCOCCOCCOCCOCCOCCC(N)=O)NC(=O)[C@H](Cc2ccc(O)cc2)N(C)C(=O)[C@H](Cc2ccc(O)cc2)NC(=O)[C@H](CCCNC(=N)N)NC(=O)[C@H](CCCNC(=N)N)NC(=O)[C@H]([C@@H](C)CC)NC1=O` [compound 257], the Kd under setting [2] came out at 0.164 µM.

As to `CC[C@H](C)[C@@H]1NC(=O)[C@H](Cc2ccc(OCC(=O)O)cc2)NC(=O)[C@H](Cc2ccc(N)nc2)NC(=O)[C@H](CC(N)=O)NC(=O)[C@H](Cc2c[nH]c3ccccc23)NC(=O)[C@H](C(C)C)NC(=O)[C@H](Cc2cccc(Cl)c2)N(C)C(=O)[C@H](C(C)C)NC(=O)[C@H](C)NC(=O)CSC[C@@H](C(=O)NCC(=O)N[C@H](CCC(=O)O)C(=O)N[C@H](CCC(=O)O)C(=O)N[C@H](CO)C(=O)N[C@H](CO)C(=O)N[C@H](CO)C(=O)N[C@H](CCCCN)C(N)=O)NC(=O)[C@H](Cc2ccc(O)cc2)N(C)C(=O)[C@H](Cc2cccc(C(=O)O)c2)NC(=O)[C@H](CCCNC(=N)N)NC(=O)[C@H](CCC(=O)NCCOCCOCCOCCOCCOCCOCCOCCOC)NC(=O)[C@H]([C@@H](C)CC)NC1=O` [compound 336], under setting [3], the Kd was 0.001 to 0.1 µM. Regarding `CC[C@H](C)[C@@H]1NC(=O)[C@H](Cc2ccc(OCC(=O)O)cc2)NC(=O)[C@H](Cc2ccc(O)cc2)NC(=O)[C@H](CC(N)=O)NC(=O)[C@H](Cc2cn(CC(=O)O)c3ccccc23)NC(=O)[C@H](C(C)C)NC(=O)[C@H](Cc2cccc(Cl)c2)N(C)C(=O)[C@H](C(C)C)NC(=O)[C@H](C)NC(=O)CSC[C@@H](C(=O)NCC(=O)N[C@H](CCC(=O)O)C(=O)N[C@H](CCC(=O)O)C(=O)N[C@H](CCC(=O)O)C(=O)N[C@H](CO)C(=O)N[C@H](CO)C(=O)N[C@@H](CCCCN=[N+]=[N-])C(N)=O)NC(=O)[C@H](Cc2ccc(O)cc2)N(C)C(=O)[C@H](Cc2cccc(C(=O)O)c2)NC(=O)[C@H](CCCNC(=N)N)NC(=O)[C@H](CCC(N)=O)NC(=O)[C@H]([C@@H](C)CC)NC1=O` [compound 277], under setting [1], the Kd lay within 0.001 to 0.1 µM.
